US20190195880A1, “METHODS AND KITS FOR PREDICTING THE SENSITIVITY OF A SUBJECT SUFFERING OF RENAL CANCER TO CANCER TREATMENT” (CENTRE NATIONAL DE LA RECHERCHE SCIENTIFIQUE (CNRS), priority 2016, published 2019)

Tested on: metastatic ccRCC
Assay: Combination of SUVEGIL and TORAVA trials (sunitinib): survival versus plasmatic CXCL7
Type: in vivo, human
Conditions: both cohorts combined, CXCL7 plasma levels above 250 ng/ml; p=0.002
Experimental: All patients gave written informed consent. The SUVEGIL trial (NCT00943839) was a multicenter prospective single-arm study. […] Patient characteristics and results have been previously described (Negrier et al., 2011).
The CXCL5 and CXCL7 cut-off points (respectively 0.1 and 250 ng/ml) for PFS and OS were determined using smoothing spline curves analysis (R software, version 3.2.2). […] The predictive cut-off points determined in the SUVEGIL cohort were used for the TORAVA cohort.

Compound: CCN(CC)CCNC(=O)c1c(C)[nH]c(/C=C2\C(=O)Nc3ccc(F)cc32)c1C [sunitinib]
- median PFS: 27.7 months
